Test results published in patent US20230340081A1.

Molecular target: HBV genotype D viruses (produced in HepG2.2.15 cell culture supernatant) (hepatitis B virus genotype D)
Assay: cell-based or functional assay

With Bc8.104 (antibody) the HBV-gD in vitro neutralization (IC50 µg/ml) was 2.61e-06 µg/mL.
